Values joined by “and” are separate entries in the source; they are usually repeats but may differ in a detail not shown here. Equal values may be shown once.
Key:
[1] = target: thrombin receptor (PAR-1) (Homo sapiens, UniProt P25116); experiment: FLIPR-based calcium-flux assay with human smooth muscle cells (Har peptide agonist); conditions: read-out: FLIPR-HSMC IC50 (μM) 80-min drug incubation, 30 nM Har (PAR1) peptide agonist, multiple values = individual measurements
Description: Human aortic smooth muscle cells (HSMC) were purchased from Cascade Biologics (Portland, Oreg.) and cultured in M-231 containing smooth muscle cell growth supplement and 1× Antibiotic-Antimycotic.
To determine agonist concentration for compound testing: On the day prior to the assay, 100 μL of cells (2×10^5/mL) were seeded in clear, flat-bottom black-wall, tissue culture treated polystyrene 96-well plates and incubated at 37° C., 5% CO2. On the day of the assay, 50 μL of complete dye loading solution (FLIPR Calcium 3 Kit, Molecular Devices) was added to each well containing 100 μL of culture media. The cells were incubated for 30-45 min at 37° C., in 5% CO2 before initiating the assay on the FLIPR. The agonist effect of PAR1 peptide (S-(p-F-Phe)-Har-L-Har-KY-NH2; Har=homoarginine; referred to herein as “Har” peptide) was tested and the EC50 was determined. The EC60-70 dose was used (30 nM) for compound testing.
Compound testing: On the day prior to the assay, 90 μL of cells (2.2×10^5/mL) were seeded in clear, flat-bottom black-wall, tissue culture treated polystyrene 96-well plates and incubated at 37° C., 5% CO2. On the day of the assay, the test compounds were prepared at 10× in 3% DMSO Hanks buffer and 10 μL was added to each well (final DMSO concentration of 0.3%). The cells were incubated 20 min at 37° C., 5% CO2. Culture medium containing testing compounds was dumped and the cells were washed four times with DPBS containing 0.1% of BSA and re-fed with 80 μL of growth medium. 70 μL of BD (fluorescent) dye was loaded to the cells and incubated 45 min at 37° C. incubator. The plates were equilibrated to room temperature for 15 min. 4× PAR1 peptide (30 nM final concentration) agonist plate and the cell plate were placed in FLIPR's assay chamber. 50 μL agonist was added to the cells and data was recorded for 5 min. Raw fluorescence data was exported for each well and tabulated versus time within an ASCII file. Data was then imported into Excel® and the peak response over basal level was determined. The percent inhibition for each test compound was calculated by the changes of fluorescent density as a % inhibition of the control Har peptide response to obtain an IC50.
Representative compounds of the present invention were tested according to the procedure described in Biological Example 1 above, with results in Table 8 below. In Table 8 below, where multiple values are listed for a particular compound, said numbers represent individual measurements (tests) for said compound.

By UniProt entry, the sequences of proteins in these tests, tags left out. Residues count along the entry.
UniProt P25116, 22-425 limits assumed: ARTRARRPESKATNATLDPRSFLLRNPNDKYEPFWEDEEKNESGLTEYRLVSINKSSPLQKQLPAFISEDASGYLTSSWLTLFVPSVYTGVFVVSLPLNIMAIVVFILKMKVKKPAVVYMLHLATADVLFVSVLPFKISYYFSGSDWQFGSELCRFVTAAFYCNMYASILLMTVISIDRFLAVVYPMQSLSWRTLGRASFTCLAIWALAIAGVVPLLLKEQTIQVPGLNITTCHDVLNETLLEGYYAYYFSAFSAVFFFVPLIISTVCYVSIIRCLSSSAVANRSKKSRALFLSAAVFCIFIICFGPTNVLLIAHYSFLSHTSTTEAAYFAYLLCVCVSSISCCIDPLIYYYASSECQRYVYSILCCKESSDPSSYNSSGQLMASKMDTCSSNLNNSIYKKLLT

[2] = test system: platelets in platelet-rich plasma; experiment: Har peptide-induced platelet aggregation in platelet-rich plasma
Description: (§1) The procedure for this assay is similar to that described in Biological Example 2, above. Briefly, platelet aggregation studies were performed according to the method of Bednar et al. (Bednar, B., Condra, C., Gould, R. J., and Connolly, T. M., Thromb. Res., 77:453-463 (1995)). Platelet-rich plasma (PRP) concentrates prepared from healthy volunteers who were aspirin free for at least 7 days by venipuncture using EDTA as anticoagulant was purchased from Biological Specialties, Inc. (Colmar, Pa.). PPP (platelet-poor-plasma) was obtained by centrifugation of PRP at Max (3,000 rpms) for 15 min at room temperature. PRP was diluted to yield platelet count of 300×10^3 platelets/μL with PPP. For thrombin induced platelet aggregation: 118 μL of 500 mM GPRP-NH2 was added to 12 mL of 300×10^3 platelets before using (to clean the fibrinogen in the plasma.) GPRP was added just before the experiment. 15 μL of test compound solutions were added to 120 μL of platelets 5 min prior the agonist additions. Platelet aggregation was initiated by the addition of agonist shown to achieve 60-70% aggregation. Antagonist potency was estimated as a % inhibition of the control Har peptide or thrombin response to obtain an IC50.
(§2) Where multiple values are listed for a particular compound, said numbers represent individual measurements (tests) for said compound.

[3] = test system: platelets in platelet-rich plasma; experiment: Thrombin-induced platelet aggregation in platelet-rich plasma; conditions: read-out: Platelet Rich Plasma Aggregation Thrombin IC50, multiple values = individual measurements
Description: as §1, §2

| IC50 [1] | IC50 [3] [nM] | IC50 ([2]; read-out: Platelet Rich Plasma Aggregation Har IC50, multiple values = individual measurements) [nM] | SMILES | Platelet Rich Plasma Aggregation Har, % inhibition @10 μM ([2]; 10 μM compound, 10 µM) |
| --- | --- | --- | --- | --- |
| 0.58 µM and 0.54 µM | 7500 | – | COc1c(N2CCOCC2)cc(C(=O)CN2Cc3cc4c(cc3C2=N)OCCN(c2ccccc2)CCO4)cc1C(C)(C)C | 33%@10 μM and 38%@10 μM |
| > 3 µM | > 10000 | > 10000 | COc1c(N2CCOCC2)cc(C(=O)CN2Cc3cc4c(cc3C2=N)OCCN(C(C)=O)CCO4)cc1C(C)(C)C | – |
| 0.057 µM and 0.2 µM and 0.22 µM | – | – | COc1c(N2CCOCC2)cc(C(=O)CN2Cc3cc4c(cc3C2=N)OCc2cccnc2CO4)cc1C(C)(C)C | – |

Further lines, the compound ahead of its results:

| SMILES | IC50 [1] | IC50 [3] [nM] | IC50 ([2]; read-out: Platelet Rich Plasma Aggregation Har IC50, multiple values = individual measurements) [nM] | Platelet Rich Plasma Aggregation Har, % inhibition @10 μM ([2]; 10 μM compound, 10 µM) |
| --- | --- | --- | --- | --- |
| CC(C)(C)c1cc(C(=O)CN2Cc3cc4c(cc3C2=N)OCCNCCO4)cc(C(C)(C)C)c1O | > 1 µM | – | – | – |
| COC(=O)c1ccc2c(c1)COc1cc3c(cc1OC2)CN(CC(=O)c1cc(Br)c(OC)c(C(C)(C)C)c1)C3=N | 0.189 µM | – | – | – |
| CC(C)(C)OC(=O)N1CCOc2cc3c(cc2OCC1)C(=N)N(CC(=O)c1cc(C(C)(C)C)c(O)c(C(C)(C)C)c1)C3 | 0.109 µM | – | – | – |
| COc1c(N2CCOCC2)cc(C(=O)CN2Cc3cc4c(cc3C2=N)OCCN(S(=O)(=O)c2ccc(C)cc2)CCO4)cc1C(C)(C)C | 0.13 µM and 1.3 µM and 0.61 µM | – | – | – |

— patent US8673890B2, “2,3-dihydro-1H-isoindol-1-imine derivatives useful as thrombin PAR-1 receptor antagonist” (Janssen Pharmaceutica NV, priority 2009, dated 2014)
